Molecular target: hERG ion channel (Homo sapiens, UniProt Q12809)
Conditions: 0.05 μM

Protein sequences, listed by entry. Tags and fused reporters are not part of them. Lines headed by an entry give the natural chain unless they say otherwise; changes in a name come on top.
UniProt Q12809: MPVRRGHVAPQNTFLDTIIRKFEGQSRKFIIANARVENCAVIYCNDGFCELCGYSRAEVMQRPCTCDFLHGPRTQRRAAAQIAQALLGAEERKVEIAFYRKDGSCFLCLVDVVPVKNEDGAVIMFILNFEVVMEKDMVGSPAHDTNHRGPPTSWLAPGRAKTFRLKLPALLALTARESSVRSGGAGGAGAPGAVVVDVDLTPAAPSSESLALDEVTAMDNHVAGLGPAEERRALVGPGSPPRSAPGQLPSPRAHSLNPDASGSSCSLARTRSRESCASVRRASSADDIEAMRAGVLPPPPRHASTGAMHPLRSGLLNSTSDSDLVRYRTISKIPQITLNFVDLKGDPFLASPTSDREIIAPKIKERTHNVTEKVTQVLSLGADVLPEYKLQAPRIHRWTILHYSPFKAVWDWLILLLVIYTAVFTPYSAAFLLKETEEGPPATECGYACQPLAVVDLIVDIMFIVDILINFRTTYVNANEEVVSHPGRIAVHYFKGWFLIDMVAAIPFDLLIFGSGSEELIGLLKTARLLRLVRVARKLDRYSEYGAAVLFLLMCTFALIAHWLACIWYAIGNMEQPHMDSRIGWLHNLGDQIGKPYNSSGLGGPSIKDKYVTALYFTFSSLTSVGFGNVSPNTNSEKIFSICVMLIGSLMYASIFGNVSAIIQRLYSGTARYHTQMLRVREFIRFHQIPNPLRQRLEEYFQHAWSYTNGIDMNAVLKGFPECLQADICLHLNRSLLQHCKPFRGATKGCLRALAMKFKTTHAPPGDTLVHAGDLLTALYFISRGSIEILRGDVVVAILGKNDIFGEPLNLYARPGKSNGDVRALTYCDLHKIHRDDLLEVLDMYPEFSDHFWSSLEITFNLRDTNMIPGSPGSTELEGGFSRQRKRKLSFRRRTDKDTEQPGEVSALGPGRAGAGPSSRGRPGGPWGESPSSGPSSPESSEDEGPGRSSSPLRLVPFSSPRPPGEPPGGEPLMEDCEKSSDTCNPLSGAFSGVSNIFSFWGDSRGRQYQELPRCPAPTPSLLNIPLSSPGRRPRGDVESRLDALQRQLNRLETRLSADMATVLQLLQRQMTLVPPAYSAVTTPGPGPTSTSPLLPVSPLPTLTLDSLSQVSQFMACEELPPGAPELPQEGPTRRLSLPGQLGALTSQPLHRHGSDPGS

Molecule `COc1cc(N)c(Cl)cc1C(=O)NC1CCN(CCCOc2ccc(F)cc2)CC1OC` (stereo not shown) [cisapride] has a hERG channel inhibition of 69 ± 4%.

Source: PMC10785772 (Science translational medicine, 2023)
